AlphaSeq binding of Ab-14 light chain variants to a spike HR2 peptide

Values reported by Li et al. 2023, doi:10.1038/s41467-023-39022-2 (FLAb copy).

The target is the same throughout: PDVDLGDISGINAS, from the HR2 region of SARS-CoV-2 spike.

Parent scFv Ab-14: VH joined to VL by three GGGGS repeats. Changes lie in the light chain CDRs alone.
VH: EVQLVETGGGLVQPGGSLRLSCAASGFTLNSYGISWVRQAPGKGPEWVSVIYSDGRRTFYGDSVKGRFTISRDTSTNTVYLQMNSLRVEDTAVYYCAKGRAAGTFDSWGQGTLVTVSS
VL: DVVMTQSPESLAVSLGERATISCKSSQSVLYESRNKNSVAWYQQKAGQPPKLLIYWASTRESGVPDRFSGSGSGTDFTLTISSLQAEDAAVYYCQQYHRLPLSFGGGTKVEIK

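The starting antibody came from a phage panning campaign against this peptide. These sequences belong to a second round, designed from the earlier measurements on random variants of the parent. Group labels follow the data file (Ctrl: baseline library sampled from a position-specific scoring matrix, with some repeated check sequences; GP: Gaussian process model; HC: hill climbing; Gen: genetic algorithm; Gibbs: Gibbs sampling; a sequence that several methods proposed may carry one label only). The assay is AlphaSeq: two haploid yeast populations carry antibody and antigen on their surface. After mating in shaken culture at 30 °C for 16 h, diploids were selected and their barcode pairs sequenced. A regression on co-assayed BCL2-family reference pairs converts the normalised counts of each replicate to an apparent Kd. The assay was run in six technical replicates.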

Positions count from residue 1 of the parent VL; S28Q puts Q in place of S. This list holds designs with at most six substitutions. Scale: log10 of Kd in nM, estimated from mating counts; low values are strong binders. Averages over replicates are reported, and they cover detected replicates only. "no signal" means that the variant was in the library but no mating with the target was seen in any replicate; the authors take this as a sign of poor binding, and no number exists. Background: pairings of all light chain designs with three empty control strains gave a value in 4% of cases (median 2.64, 5th percentile 1.59). Values in that range, when seen in few replicates, are hard to tell from nonspecific mating.

With S28Q Y31L S38P W56A [Ctrl] the result was 1.79 (5 of 6 replicates). Variant S25L W56N S62Y [GP_Gen] showed -0.11 (6 of 6 replicates). For S25L S26R V29T K36Q W56Q [GP_HC], the assay gave -0.14 (6 of 6 replicates). With S25M V29G W56N [GP_Gen] the result was -0.07 (6 of 6 replicates). With S25V W56D E61C S103E [GP_HC] the result was -0.27 (6 of 6 replicates). Variant K24S S25L S26M W56H T59L S62V [GP_HC] showed 1.46 (6 of 6 replicates). Variant R34I W56Q [Ctrl] gave -0.06 (6 of 6 replicates).

With S25L Y31G E32M S33W W56N [GP_Gibbs] the result was 0.05 (6 of 6 replicates). For S25F N35T W56N S58V S62M [GP_HC], the assay gave -0.44 (6 of 6 replicates). With V29N L30I E32D Q95A L100I [Ctrl] the result was no signal (0 of 6 replicates). With S25L V29M K36D W56Q Q96D S103T [GP_Gibbs] the result was -0.14 (6 of 6 replicates). With S25F S28V V29Y W56G [GP_HC] the result was -0.24 (6 of 6 replicates). Variant Q27T V39I H98N [Ctrl] gave 2.58 (2 of 6 replicates). Variant S25V V29W S38A W56G [GP_HC] gave -0.18 (6 of 6 replicates).

Variant S25V Y31P S62T [Ctrl] gave 2.00 (6 of 6 replicates). Variant S25L Q27E N35W W56D S62E [GP_Gibbs] showed -0.24 (6 of 6 replicates). Variant K24Q V29F W56A [GP_HC] gave 0.08 (6 of 6 replicates). With L30M Y31F W56D [GP_HC] the result was 0.11 (6 of 6 replicates). With L30E K36V Q95D [Ctrl] the result was no signal (0 of 6 replicates). With W56N L100E [Ctrl] the result was no signal (0 of 6 replicates). With Q27I V29Y R34E N37R W56S T59Q [GP_HC] the result was 0.52 (6 of 6 replicates).

Variant K24H Q27P L30P W56N S62E [GP_HC] gave -1.15 (6 of 6 replicates). With S26V V39M S103V [Ctrl] the result was no signal (0 of 6 replicates). Variant Y31I [Ctrl] showed 2.63 (3 of 6 replicates). Variant S25C Y31Q S33T W56S [Ctrl] gave -0.08 (6 of 6 replicates). With S25L V29W N35A W56N T59Q [GP_Gen] the result was -0.08 (6 of 6 replicates). Variant L30E S58T T59E [Ctrl] gave 0.85 (6 of 6 replicates). For S25M L30K Y31F W56D [GP_HC], the assay gave -0.21 (6 of 6 replicates).

Variant S26E V29G W56S T59V H98K [Ctrl] showed 0.54 (6 of 6 replicates). For S25L S26V W56D E61C [GP_Gen], the assay gave -0.22 (6 of 6 replicates). With S25Y Y31E V39I T59H S62H H98D [Ctrl] the result was 1.11 (30 of 30 replicates). For K24F S25L S26L K36F W56H S62D [GP_HC], the assay gave 0.26 (6 of 6 replicates).

Excerpt, the final 4 entries:

| changes | group | mean log10 Kd (nM) | replicates with signal |
|---|---|---|---|
| S26E V29G W56S T59V H98K | Ctrl | 0.54 | 6 of 6 |
| S25L S26V W56D E61C | GP_Gen | -0.22 | 6 of 6 |
| S25Y Y31E V39I T59H S62H H98D | Ctrl | 1.11 | 30 of 30 |
| K24F S25L S26L K36F W56H S62D | GP_HC | 0.26 | 6 of 6 |

A sequence measured in both rounds can read differently, since the two assays cover different ranges. Of ten entries with the parent sequence, four were seen in most replicates (averages 0.34 to 2.37), three in one and three in none, so single entries are noisy. Where one sequence has several entries in the source, the replicates are pooled. The authors averaged sequences with at least three values out of six and counted those with two or fewer as poor binders.